{"sequences": {"note": "Amino acid sequences for entries named in this document (tags omitted). Residues count along the entry.", "UniProt P12318, 34-217 H167R": "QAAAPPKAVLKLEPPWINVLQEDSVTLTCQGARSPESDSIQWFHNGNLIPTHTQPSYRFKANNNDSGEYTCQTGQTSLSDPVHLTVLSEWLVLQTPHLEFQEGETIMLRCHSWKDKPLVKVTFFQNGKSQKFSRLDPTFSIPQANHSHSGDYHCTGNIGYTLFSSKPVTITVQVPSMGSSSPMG", "UniProt P12314, 16-292": "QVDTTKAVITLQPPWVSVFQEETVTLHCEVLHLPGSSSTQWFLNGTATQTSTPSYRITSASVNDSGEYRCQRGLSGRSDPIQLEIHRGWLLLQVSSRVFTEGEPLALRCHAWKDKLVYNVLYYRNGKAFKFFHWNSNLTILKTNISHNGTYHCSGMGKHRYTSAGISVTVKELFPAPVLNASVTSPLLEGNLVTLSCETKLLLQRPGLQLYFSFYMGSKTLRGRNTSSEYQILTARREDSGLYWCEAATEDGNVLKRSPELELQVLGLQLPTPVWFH"}, "source": "paper PMC4596520", "experiment_in_all_cases": "SPR", "key": {"[1]": {"target": "hexa-His-tagged recombinant soluble human Fcγ receptor IIIb", "conditions": "read off a plot"}, "[2]": {"target": "hexa-His-tagged recombinant soluble human Fcγ receptor IIIa, 158V"}, "[3]": {"target": "hexa-His-tagged recombinant soluble human Fcγ receptor IIIa, 158F (UniProt P08637)", "conditions": "read off a plot"}, "[4]": {"target": "hexa-His-tagged recombinant soluble human Fcγ receptor IIa, 134R (UniProt P12318)", "conditions": "parent: est. 12; read off a plot"}, "[5]": {"target": "hexa-His-tagged recombinant soluble human Fcγ receptor I (UniProt P12314)", "conditions": "parent: est. 2.3; read off a plot"}, "[6]": {"conditions": "parent: est. 26, read off a plot"}, "[7]": {"conditions": "parent: est. 8.0, read off a plot"}}, "data": [{"substance": "fucosylated anti-CD20 chimeric IgG1 rituximab with a wild-type Fc region Y296C", "values": [{"measurement": "Kd", "setting": "[1]; parent: est. 19", "value": "19 ×10^-7 M"}, {"measurement": "Kd", "setting": "[2]; [6]", "value": "33 ×10^-8 M"}]}, {"substance": "fucosylated anti-CD20 chimeric IgG1 rituximab with a wild-type Fc region Y296D", "values": [{"measurement": "Kd", "setting": "[1]; parent: est. 19", "value": "28 ×10^-7 M"}, {"measurement": "Kd", "setting": "[2]; [6]", "value": "26 ×10^-8 M"}]}, {"substance": "fucosylated anti-CD20 chimeric IgG1 rituximab with a wild-type Fc region Y296E", "values": [{"measurement": "Kd", "setting": "[1]; parent: est. 19", "value": "30 ×10^-7 M"}, {"measurement": "Kd", "setting": "[2]; [6]", "value": "31 ×10^-8 M"}]}, {"substance": "fucosylated anti-CD20 chimeric IgG1 rituximab with a wild-type Fc region Y296F", "values": [{"measurement": "Kd", "setting": "[1]; parent: est. 19", "value": "20 ×10^-7 M"}, {"measurement": "Kd", "setting": "[2]; [6]", "value": "30 ×10^-8 M"}]}, {"substance": "fucosylated anti-CD20 chimeric IgG1 rituximab with a wild-type Fc region Y296G", "values": [{"measurement": "Kd", "setting": "[1]; parent: est. 19", "value": "29 ×10^-7 M"}, {"measurement": "Kd", "setting": "[2]; [6]", "value": "70 ×10^-8 M"}]}, {"substance": "fucosylated anti-CD20 chimeric IgG1 rituximab with a wild-type Fc region Y296H", "values": [{"measurement": "Kd", "setting": "[1]; parent: est. 19", "value": "26 ×10^-7 M"}, {"measurement": "Kd", "setting": "[3]; parent: est. 17", "value": "22 ×10^-7 M"}, {"measurement": "Kd", "setting": "[2]; [6]", "value": "36 ×10^-8 M"}]}, {"substance": "fucosylated anti-CD20 chimeric IgG1 rituximab with a wild-type Fc region Y296I", "values": [{"measurement": "Kd", "setting": "[1]; parent: est. 19", "value": "20 ×10^-7 M"}, {"measurement": "Kd", "setting": "[3]; parent: est. 17", "value": "26 ×10^-7 M"}, {"measurement": "Kd", "setting": "[2]; [6]", "value": "42 ×10^-8 M"}]}, {"substance": "fucosylated anti-CD20 chimeric IgG1 rituximab with a wild-type Fc region Y296L", "values": [{"measurement": "Kd", "setting": "[1]; parent: est. 19", "value": "24 ×10^-7 M"}, {"measurement": "Kd", "setting": "[3]; parent: est. 17", "value": "28 ×10^-7 M"}, {"measurement": "Kd", "setting": "[2]; [6]", "value": "42 ×10^-8 M"}]}, {"substance": "fucosylated anti-CD20 chimeric IgG1 rituximab with a wild-type Fc region Y296M", "values": [{"measurement": "Kd", "setting": "[1]; parent: est. 19", "value": "20 ×10^-7 M"}, {"measurement": "Kd", "setting": "[3]; parent: est. 17", "value": "28 ×10^-7 M"}, {"measurement": "Kd", "setting": "[2]; [6]", "value": "42 ×10^-8 M"}]}, {"substance": "fucosylated anti-CD20 chimeric IgG1 rituximab with a wild-type Fc region Y296N", "values": [{"measurement": "Kd", "setting": "[1]; parent: est. 19", "value": "22 ×10^-7 M"}, {"measurement": "Kd", "setting": "[3]; parent: est. 17", "value": "23 ×10^-7 M"}, {"measurement": "Kd", "setting": "[2]; [6]", "value": "36 ×10^-8 M"}]}, {"substance": "fucosylated anti-CD20 chimeric IgG1 rituximab with a wild-type Fc region Y296P", "values": [{"measurement": "Kd", "setting": "[2]; parent: est. 26", "value": "> 100 ×10^-8 M"}]}, {"substance": "fucosylated anti-CD20 chimeric IgG1 rituximab with a wild-type Fc region Y296Q", "values": [{"measurement": "Kd", "setting": "[1]; parent: est. 19", "value": "20 ×10^-7 M"}, {"measurement": "Kd", "setting": "[2]; [6]", "value": "45 ×10^-8 M"}]}, {"substance": "fucosylated anti-CD20 chimeric IgG1 rituximab with a wild-type Fc region Y296R", "values": [{"measurement": "Kd", "setting": "[1]; parent: est. 19", "value": "23 ×10^-7 M"}, {"measurement": "Kd", "setting": "[2]; [6]", "value": "68 ×10^-8 M"}]}, {"substance": "fucosylated anti-CD20 chimeric IgG1 rituximab with a wild-type Fc region Y296S", "values": [{"measurement": "Kd", "setting": "[1]; parent: est. 19", "value": "20 ×10^-7 M"}, {"measurement": "Kd", "setting": "[2]; [6]", "value": "50 ×10^-8 M"}]}, {"substance": "fucosylated anti-CD20 chimeric IgG1 rituximab with a wild-type Fc region Y296T", "values": [{"measurement": "Kd", "setting": "[1]; parent: est. 19", "value": "19 ×10^-7 M"}, {"measurement": "Kd", "setting": "[2]; [6]", "value": "53 ×10^-8 M"}]}, {"substance": "fucosylated anti-CD20 chimeric IgG1 rituximab with a wild-type Fc region Y296V", "values": [{"measurement": "Kd", "setting": "[1]; parent: est. 19", "value": "28 ×10^-7 M"}, {"measurement": "Kd", "setting": "[3]; parent: est. 17", "value": "29 ×10^-7 M"}, {"measurement": "Kd", "setting": "[2]; [6]", "value": "43 ×10^-8 M"}]}, {"substance": "nonfucosylated anti-CD20 chimeric IgG1 rituximab with a wild-type Fc region Y296C", "values": [{"measurement": "Kd", "setting": "[1]; parent: est. 2.5", "value": "14 ×10^-7 M"}, {"measurement": "Kd", "setting": "[2]; [7]", "value": "15 ×10^-8 M"}]}, {"substance": "nonfucosylated anti-CD20 chimeric IgG1 rituximab with a wild-type Fc region Y296D", "values": [{"measurement": "Kd", "setting": "[1]; parent: est. 2.5", "value": "12 ×10^-7 M"}, {"measurement": "Kd", "setting": "[2]; [7]", "value": "10 ×10^-8 M"}]}, {"substance": "nonfucosylated anti-CD20 chimeric IgG1 rituximab with a wild-type Fc region Y296E", "values": [{"measurement": "Kd", "setting": "[1]; parent: est. 2.5", "value": "17 ×10^-7 M"}, {"measurement": "Kd", "setting": "[4]", "value": "12 ×10^-7 M"}, {"measurement": "Kd", "setting": "[2]; [7]", "value": "13 ×10^-8 M"}]}, {"substance": "nonfucosylated anti-CD20 chimeric IgG1 rituximab with a wild-type Fc region Y296F", "values": [{"measurement": "Kd", "setting": "[1]; parent: est. 2.5", "value": "3.5 ×10^-7 M"}, {"measurement": "Kd", "setting": "[2]; [7]", "value": "10 ×10^-8 M"}]}, {"substance": "nonfucosylated anti-CD20 chimeric IgG1 rituximab with a wild-type Fc region Y296G", "values": [{"measurement": "Kd", "setting": "[5]", "value": "2.9 ×10^-8 M"}, {"measurement": "Kd", "setting": "[1]; parent: est. 2.5", "value": "14 ×10^-7 M"}, {"measurement": "Kd", "setting": "[3]; parent: est. 5.0", "value": "15 ×10^-7 M"}, {"measurement": "Kd", "setting": "[4]", "value": "12 ×10^-7 M"}, {"measurement": "Kd", "setting": "[2]; [7]", "value": "29 ×10^-8 M"}]}, {"substance": "nonfucosylated anti-CD20 chimeric IgG1 rituximab with a wild-type Fc region Y296H", "values": [{"measurement": "Kd", "setting": "[1]; parent: est. 2.5", "value": "5 ×10^-7 M"}, {"measurement": "Kd", "setting": "[2]; [7]", "value": "10 ×10^-8 M"}]}, {"substance": "nonfucosylated anti-CD20 chimeric IgG1 rituximab with a wild-type Fc region Y296I", "values": [{"measurement": "Kd", "setting": "[1]; parent: est. 2.5", "value": "15 ×10^-7 M"}, {"measurement": "Kd", "setting": "[2]; [7]", "value": "17 ×10^-8 M"}]}, {"substance": "nonfucosylated anti-CD20 chimeric IgG1 rituximab with a wild-type Fc region Y296L", "values": [{"measurement": "Kd", "setting": "[1]; parent: est. 2.5", "value": "14 ×10^-7 M"}, {"measurement": "Kd", "setting": "[2]; [7]", "value": "18 ×10^-8 M"}]}, {"substance": "nonfucosylated anti-CD20 chimeric IgG1 rituximab with a wild-type Fc region Y296M", "values": [{"measurement": "Kd", "setting": "[1]; parent: est. 2.5", "value": "14 ×10^-7 M"}, {"measurement": "Kd", "setting": "[2]; [7]", "value": "16 ×10^-8 M"}]}, {"substance": "nonfucosylated anti-CD20 chimeric IgG1 rituximab with a wild-type Fc region Y296N", "values": [{"measurement": "Kd", "setting": "[1]; parent: est. 2.5", "value": "14 ×10^-7 M"}, {"measurement": "Kd", "setting": "[2]; [7]", "value": "15 ×10^-8 M"}]}, {"substance": "nonfucosylated anti-CD20 chimeric IgG1 rituximab with a wild-type Fc region Y296P", "values": [{"measurement": "Kd", "setting": "[2]; [7]", "value": "62 ×10^-8 M"}]}, {"substance": "nonfucosylated anti-CD20 chimeric IgG1 rituximab with a wild-type Fc region Y296Q", "values": [{"measurement": "Kd", "setting": "[1]; parent: est. 2.5", "value": "16 ×10^-7 M"}, {"measurement": "Kd", "setting": "[2]; [7]", "value": "20 ×10^-8 M"}]}, {"substance": "nonfucosylated anti-CD20 chimeric IgG1 rituximab with a wild-type Fc region Y296R", "values": [{"measurement": "Kd", "setting": "[1]; parent: est. 2.5", "value": "16 ×10^-7 M"}, {"measurement": "Kd", "setting": "[3]; parent: est. 5.0", "value": "17 ×10^-7 M"}, {"measurement": "Kd", "setting": "[2]; [7]", "value": "25 ×10^-8 M"}]}, {"substance": "nonfucosylated anti-CD20 chimeric IgG1 rituximab with a wild-type Fc region Y296S", "values": [{"measurement": "Kd", "setting": "[1]; parent: est. 2.5", "value": "13 ×10^-7 M"}, {"measurement": "Kd", "setting": "[2]; [7]", "value": "19 ×10^-8 M"}]}, {"substance": "nonfucosylated anti-CD20 chimeric IgG1 rituximab with a wild-type Fc region Y296T", "values": [{"measurement": "Kd", "setting": "[1]; parent: est. 2.5", "value": "15 ×10^-7 M"}, {"measurement": "Kd", "setting": "[2]; [7]", "value": "17 ×10^-8 M"}]}, {"substance": "nonfucosylated anti-CD20 chimeric IgG1 rituximab with a wild-type Fc region Y296V", "values": [{"measurement": "Kd", "setting": "[1]; parent: est. 2.5", "value": "14 ×10^-7 M"}, {"measurement": "Kd", "setting": "[2]; [7]", "value": "15 ×10^-8 M"}]}]}
